Literature values, collected in patent US4520134A, “N-alkyl-4'-hydroxyacetanilides, pharmaceutical compositions comprising them and their use” (priority 1984, dated 1985).

Conditions: some sensitive strains of mice, e.g. outbred Swiss; cited from earlier work

## CC(=O)Nc1ccc(O)cc1 [acetaminophen]
  LD100: 400 mg/kg
